Test results published in patent EP0660840B1 (priority 1992, dated 1994).

Amino acid sequences for entries named in this document (tags omitted). A change or cut given only in a name is not applied to a line headed by its entry.
UniProt P07861: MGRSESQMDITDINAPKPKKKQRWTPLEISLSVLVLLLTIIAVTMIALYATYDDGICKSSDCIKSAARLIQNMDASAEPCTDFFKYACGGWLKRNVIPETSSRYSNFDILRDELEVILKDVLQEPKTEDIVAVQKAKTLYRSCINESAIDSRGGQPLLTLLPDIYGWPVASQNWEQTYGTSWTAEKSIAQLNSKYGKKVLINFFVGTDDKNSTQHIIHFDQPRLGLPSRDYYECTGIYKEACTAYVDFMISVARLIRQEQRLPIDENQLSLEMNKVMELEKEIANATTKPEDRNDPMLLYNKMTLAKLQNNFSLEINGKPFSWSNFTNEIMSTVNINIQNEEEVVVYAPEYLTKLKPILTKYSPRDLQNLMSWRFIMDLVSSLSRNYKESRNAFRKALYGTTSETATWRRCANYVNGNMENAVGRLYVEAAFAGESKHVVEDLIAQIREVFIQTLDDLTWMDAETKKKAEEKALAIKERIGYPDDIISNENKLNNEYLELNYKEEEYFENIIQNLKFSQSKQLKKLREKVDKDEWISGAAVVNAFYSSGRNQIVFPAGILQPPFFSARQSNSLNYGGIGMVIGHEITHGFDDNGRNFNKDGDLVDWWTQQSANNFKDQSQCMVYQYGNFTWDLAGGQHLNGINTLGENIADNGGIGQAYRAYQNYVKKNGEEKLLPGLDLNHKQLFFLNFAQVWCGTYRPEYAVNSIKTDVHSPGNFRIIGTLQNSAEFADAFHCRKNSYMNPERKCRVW

Target: neutral endopeptidase (NEP) 3.4.24.11 (Rattus norvegicus, UniProt P07861)
Test: biochemical

- IC50: ~0.015 µM
Structure (SMILES): O=C(O)[C@H](Cc1ccc(-c2ccccc2)cc1)NCP(=O)(O)O [Example 11, (S)-3-(biphenyl-4-yl)-2-(phosphonomethylamino)-propionic acid]
